This is an account of results in patent US20240425966A1, “GAS-ASSISTED COCRYSTAL DE-SUBLIMATION” (THE REGENTS OF THE UNIVERSITY OF MICHIGAN, priority 2021, published 2024).

The conditions of data set [1]: SEM.
Data set [2] is described as follows: Thermogravimetric analysis (TGA), enthalpy of sublimation from Arrhenius plot of mass loss rate. The data set is classed as physicochemical. The settings on record: for Sublimation ΔHsub: 25-400° C., 10° C. per minute, slope of log mass loss rate versus 1000/T; for Sublimation Tlow: lower temperature of sublimation range; for Sublimation Thigh: upper temperature of sublimation range. The protocol:
(§1) To determine optimal process temperature, differential scanning calorimetry (DSC) and thermogravimetric analysis (TGA) were performed on the pure components, as well as on the cocrystal, shown in FIG. 2. A TA instruments DSC Q200 was used with a 40-400° C. heating range and 10° C. per minute heating rate. Only initial heating curves were collected and analyzed, without a cooling and secondary heating step. The initial melting peak temperature and enthalpy of melting values for each sample was determined using Universal Analysis software from TA instruments. A TA Instruments TGA Q500 was used with a 25-400° C. heating range and a 10° C. per minute heating rate. Powder was placed into a 5 mm diameter aluminum sample pan centered in a platinum hang pan. Enthalpies of sublimation were determined by plotting the logarithm of mass loss rate (−dm/dt) versus inverse temperature (1000/T).

Data set [3] in a line: Differential scanning calorimetry (DSC), enthalpy of melting. The format is physicochemical. To be noted: 40-400° C., 10° C. per minute, initial heating curve. Here is the method: as §1

Regarding carbamazepine-succinic acid [CBZ-SUC], the crystallite size in data set [1] (bulk synthesized and dried (solvent evaporation) material) is recorded as > 100 μm. Further, in data set [1] (gas-processed (de-sublimated) material), the particle size result is reported as “below 10 μm”. Further, in data set [2], the “Sublimation ΔHsub” value was determined as 67.57 kcal/mol, the “Sublimation Tlow” value stood at 200 °C and the “Sublimation Thigh” value was 230 °C. The “Melting ΔHmelt” value in data set [3] is 22.6 kcal/mol.
With indomethacin-saccharine [IND-SAC], in data set [2], the “Sublimation ΔHsub” value is 24.47 kcal/mol, the “Sublimation Tlow” value amounted to 200 °C and the “Sublimation Thigh” value worked out at 280 °C. Besides, the “Melting ΔHmelt” value in data set [3] amounted to 17.6 kcal/mol.
